GLP-1R agonist: agonists of human GLP-1 receptor; Potency, µM (titrated, usually from 45.6 µM), for inactives: at the top dose activation, hits mostly activators; P43220; HEK293 GLP-1R CRE-luciferase, luminescence, 4-6 h; cells express a hypersensitive GLP-1R form; 380,000 compounds, 0.007% hits; note: potency is the fitted concentration of half-maximal effect; % of control where 0% means no effect
GLP-1R inv ag: inverse agonists of human GLP-1 receptor | P43220 | HEK293 GLP-1R CRE-luciferase, luminescence, 24 h; GLP-1R form is constitutively active | Potency, µM (highest dose often 38.3 µM), for the others: top-dose activity change, negative = inhibition, usual class: inhibitors | 410,000 compounds, 1.6% hits | AID 624417; note: potency is the fitted concentration of half-maximal effect; % is set by controls: 0 for no effect and ±100 for the full control effect; nearly all actives have a fitted effect of over 55% in size
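HEK293 cells stably co-expressing a cAMP-responsive luciferase reporter and constitutively active GLP-1R were seeded, incubated 12 h, then exposed to compounds for 24 h at 37 C. Luminescence was read 12 min after detection reagent; inverse agonists lower signal.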
Pin1 inhibitor: inhibitors of human Pin1; Potency, µM (highest dose often 115 µM), without a hit: at the highest dose activity, negative = inhibition, hits mostly inhibitors; Pin1 FP peptide displacement, HiFluor488, 10 min; Q13526; 390,000 compounds, 0.009% hits; active = well fitted inhibition curve with a large enough effect in the polarisation, with a control signal flat, not every such curve was filed as active; inconclusive = small, poorly fitted or top-dose-only effect, or effect the other way, or a change in a side signal; inactive = no such curve, though single readings can be large or run the other way; the % refers to the polarisation; note: potency is the fitted concentration of half-maximal effect; % is set by controls: 0 for no effect and ±100 for the full control effect
HEK293 tox: cytotoxic in the GLP-1 receptor inverse agonist counter-screen. HEK293 cAMP-luciferase reporter cells, luminescence, 24 h. Potency, µM (titrated, usually from 38.3 µM), for inactives: at the highest dose activity change, negative = inhibition, most hits filed as inhibitors. 410,000 compounds, 0.13% hits;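 note: loss of luciferase light is scored as toxicity; potency is the fitted concentration of half-maximal effect; % is set by controls: 0 for no effect and ±100 for the full control effect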
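Step one: seed cells (200 cells/uL, DMEM with 10% Nu serum, 1% pen-strep). Step two: 12-hour incubation at 37 deg C. Step three: pin 23 nL compound, incubate 24 hr. Step four: add luciferase reagent, read luminescence 12 min later.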
miR-21 FLuc: miR-21 reporter, rising signal; HeLa miR-21 FLuc reporter, luciferase, 48 h; Potency, µM (highest dose often 38.3 µM), for the others: top-dose reporter change, positive = more light; 340,000 tested, under 10 active; AID 2288; active = well fitted rising curve with a large enough effect; inconclusive = small, poorly fitted or top-dose-only effect; inactive = no such curve, though single readings can be large or run the other way;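 further: % of control where 0% means no effect; miR-21 action dims this reporter so a rising signal means less miR-21 action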
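HeLa cells endogenously expressing miR-21, stably carrying CMV-driven firefly luciferase with a downstream miR-21 binding site, 2000 cells/well. Titrations up to approximately 40 uM, 48 hours; luciferase luminescence read.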
PTHR1 ag: PTHR1 (human) receptor agonism | Q03431 | HEK293 GP2 PTHR1 cells, GloSensor cAMP luminescence, 1 h | Potency, µM (doses to about 115 µM), for the others: top-dose activation, usual class: activators | 410,000 compounds, 0.075% hits | AID 743266; note: potency is the fitted concentration of half-maximal effect; nearly all actives have a fitted effect of over 55% in size
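HEK-293-derived GP2 cells expressing PTHR1 and a GloSensor cAMP reporter, 3,000/well, plated overnight, given luciferin plus IBMX (each 0.5 mM as added) for 1 h at 37 °C, then compound for 1 h at 37 °C. Luminescence was read after 15 min at room temperature.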
Starred values were filed as active, the others as inactive; i = inactive; ? = inconclusive; . = not tested or not shown; [ ] = dose if it differs, or a comment. Hits are enriched below; roughly 1.7% of the tested compounds scored in any of these assays. Unless noted, calls come from the whole dose curve; as a rule, active = well fitted curve in the direction sought with a large enough effect; inconclusive = small, poorly fitted or top-dose-only effect, or another doubt; inactive = no such curve, though single readings can be large; an effect the other way counts as inactive or inconclusive.

Each structure is followed by: HEK293 tox	miR-21 FLuc	PTHR1 ag	Pin1 inhibitor	GLP-1R agonist	GLP-1R inv ag
CC(OCc1ccccc1)C(NC(=O)OC(C)(C)C)C(=O)NC1COC2CC(n3ccc(=O)[nH]c3=O)OC12 (stereo not given)
→ .	.	.	-6.8%	.	.
NCCC(=O)Nc1cccc(-c2nn3c(=O)cc(N4CCNCC4)nc3s2)c1
→ .	.	.	0.6%	.	.
CCN(CC)CCCNC(=O)c1nn(C)c2c1CSc1ccccc1-2
→ -3.8%	8.7%	-36.1%	-3.1%	.	5.3%
CCOC(=O)C1=C(c2ccccc2)NC(N)=NC1c1ccc(OCc2ccc(C(=O)OC)cc2)cc1 (stereo not given)
→ ?	?	i	28.8%	8.4%	8.91µM*
O=[S+]([O-])([O-])c1ccc2c(c1)cc([S+](=O)([O-])[O-])c1nn(-c3ccc(/C=C/c4ccc(-n5nc6c([S+](=O)([O-])[O-])cc7cc([S+](=O)([O-])[O-])ccc7c6n5)cc4[S+](=O)([O-])[O-])c([S+](=O)([O-])[O-])c3)nc12
→ .	.	.	-26.6%	.	.
CC(CC(c1ccccc1)c1ccccc1)NC(C)(C)C (stereo not given)
→ .	.	.	.	0.7%	.
CCC(C)(C)c1ccc(Oc2ccc(N)cc2)cc1
→ -1.1%	?	i	4.8%	7.1%	2.82µM*
CCOC(=O)/C=C1/SCC(=O)N1Cc1ccc(Br)cc1
→ -8.3%	.	-8.9%	9.7%	10.6%	5.62µM*
Cc1ccc(NC(=O)c2c(C)oc3ccc(O)c(CN4CCCCCC4)c23)cc1
→ -6.1%	22.5%	0.6%	5.4%	.	-29.3%
Cc1nn(Cc2ccc(Cl)cc2Cl)c(C)c1NC(=O)NC12CC3CC(CC(C3)C1)C2
→ -25.2%	11.9%	-13.7%[57.5 µM]	0.8%	-11.1%	5.01µM*

Already shown: entries from further up.
Each structure is followed by: HEK293 tox	miR-21 FLuc	PTHR1 ag	Pin1 inhibitor	GLP-1R agonist	GLP-1R inv ag
CC(CC(c1ccccc1)c1ccccc1)NC(C)(C)C (stereo not given)
→ .	.	.	.	0.7%	.
CCC(C)(C)c1ccc(Oc2ccc(N)cc2)cc1
→ -1.1%	?	i	4.8%	7.1%	2.82µM*
CCOC(=O)/C=C1/SCC(=O)N1Cc1ccc(Br)cc1
→ -8.3%	.	-8.9%	9.7%	10.6%	5.62µM*
Cc1ccc(NC(=O)c2c(C)oc3ccc(O)c(CN4CCCCCC4)c23)cc1
→ -6.1%	22.5%	0.6%	5.4%	.	-29.3%
Cc1nn(Cc2ccc(Cl)cc2Cl)c(C)c1NC(=O)NC12CC3CC(CC(C3)C1)C2
→ -25.2%	11.9%	-13.7%[57.5 µM]	0.8%	-11.1%	5.01µM*

(next part)
Each structure is followed by: HEK293 tox	miR-21 FLuc	PTHR1 ag	Pin1 inhibitor	GLP-1R agonist	GLP-1R inv ag
COc1ccc2nc3c(cc2c1)c(NC(=O)c1cccs1)nn3CC(C)C
→ 155.5%	7.8%	-14.5%	12.8%	-21.6%	8.91µM*
N#Cc1nc(Nc2cc(F)cc(F)c2)c2ncn(CCO)c2n1
→ .	.	.	13.6%	.	.
C/C(CC(=O)Nc1ccc(C)c(Cl)c1)=N\NC(=O)c1ccncc1
→ 11.2%	-1.3%	-18.7%	-3.8%	5.7%	10µM*
C/C(CC(=O)Nc1cc(Cl)ccc1Cl)=N\NC(N)=S
→ -27.3%	-19.7%	-15.1%	?	2.5%	?
C/C(CC(=O)Nc1ccc(Cl)cc1Cl)=N\NC(=O)c1ccncc1
→ -8.8%	6.4%	i	0.0%	2.4%	-18.9%
C/C(CC(=O)Nc1ccc(Cl)c(Cl)c1)=N\NC(N)=S
→ ?	0.0%	i	0.0%	-5.9%	11.2µM*
CN=C1N[C@H](c2ccccc2)N(c2ccccc2)S1
→ .	.	.	-10.9%	.	.
COc1ccc2c(c1)OC[C@H]1[C@H]2N2C(=O)CN(CCc3c[nH]c4ccccc34)C(=O)[C@@]2(C)[C@H]1c1ccccc1
→ 7.2%	.	i	39.4%	-2.5%	5.01µM*
CC1=CC(C)C(/C=N/N=C(N)N)C(C)C1 (stereo not given)
→ 11.0%	5.3%	i	-1.4%	-1.4%	8.91µM*
NS(=O)(=O)c1ccc(CCNC(=O)Cn2c(=O)c3cccn3c3ccc(F)cc32)cc1
→ 20.5%	-5.1%	-21.7%	19.5%	.	9.1%
CCOC(=O)c1[nH]c2c(c1Cc1ccccc1)C(=O)CC(c1ccccc1)C2 (stereo not given)
→ -13.3%	19.0%	i	25.3%	.	11.2µM*
Cc1cccc(N2CCN(C(=O)C3CCN(S(=O)(=O)c4cccs4)CC3)CC2)c1C
→ -13.1%	1.7%	-22.3%	18.5%	.	?
O=C(Nc1ccc(Br)cc1)C1CCCN1S(=O)(=O)c1ccc(F)cc1 (stereo not given)
→ -3.5%	17.2%	-21.1%	-1.5%	.	?
CCCCCCCCN1C(=O)[C@H](CC(=O)NCc2cccs2)C[C@@]2(C(=O)OC)CC(C)(C)CC=C12
→ -6.0%	.	-43.9%	.	.	8.91µM*
COC(=O)[C@@]12C[C@@H](CC(=O)NCc3ccccc3)C(=O)N(Cc3cccc4ccccc34)C1=CCC(C)(C)C2
→ ?	.	-9.6%	.	.	?
CCCCCCCCN1C(=O)[C@H](CC(=O)NCCCCc2ccccc2)C[C@@]2(C(=O)OCC)CCCC=C12
→ -2.9%	.	i	.	0.2%	7.08µM*
COC(=O)[C@@]12C[C@@H](CC(=O)NCc3ccccc3)C(=O)N(Cc3ccccc3)C1=CCC(C)(C)C2
→ -18.7%	.	-40.3%	.	.	11.2µM*
c1nc(NCc2ccoc2)c2cc(-c3ccc4c(c3)OCO4)ccc2n1
→ .	.	.	12.8%	.	.
CC(C)N1Cc2ccc(Nc3nn4c(=O)c5ccccc5nc4s3)cc2C1
→ .	.	.	-0.7%	.	.
Cc1ccc(C)c(Nc2nc(-c3ccccc3)c3cc(Br)ccc3n2)c1
→ 35.7%	0.2%	-22.0%	?	.	-75.8%
CCN(C(=O)c1cc2c(s1)-c1c(C)cccc1OC2)c1cc(C)ccc1C
→ 31.7%	10.7%	i	-0.5%	.	11.2µM*
CCN(C(=O)c1cc2c(s1)-c1c(C)cccc1OC2)c1ccccc1F
→ 11.3%	-23.3%	-52.1%	14.2%	.	?
COc1ccccc1N(CC(=O)NCCSc1ccccc1)S(=O)(=O)c1ccccc1
→ 0.5%	.	-36.3%	-6.1%	-1.3%	?
COc1ccc(N(CC(=O)NCCSc2ccccc2)S(=O)(=O)c2ccccc2)c(OC)c1
→ -0.9%	.	-21.6%	8.9%	1.8%	10µM*
Cn1nnnc1Sc1ncnc2scc(-c3cccc([N+](=O)[O-])c3)c12
→ .	.	.	-14.5%	.	.
CC(C)(C)NC(=O)C(c1cccc2ccccc12)n1c(=O)c(-c2cc3ccccc3[nH]2)nc2ccccc21 (stereo not given)
→ i	.	-34.3%	.	.	6.31µM*
CC(C)(C)NC(=O)C(c1ccccc1)n1c(=O)c(-c2cc3ccccc3[nH]2)nc2ccccc21 (stereo not given)
→ i	.	-12.7%	.	.	?
CC(C)(C)NC(=O)C(c1ccc(C(F)(F)F)cc1)n1c(=O)c(-c2cc3ccccc3[nH]2)nc2ccccc21 (stereo not given)
→ i	.	-27.0%	.	.	2.82µM*
COc1ccc(Nc2nc(C#N)nc(NC3CCCC3)n2)cc1
→ .	.	.	8.0%	.	.
CSc1ccccc1C(=O)N(C)C(c1ccccc1)c1ccccc1
→ -3.0%	11.4%	-25.1%	19.7%	4.8%	8.91µM*
CSc1ccccc1C(=O)N(C)Cc1ccccc1
→ 2.7%	2.4%	-10.0%	-3.9%	-0.6%	-24.4%
O=C(CCSCc1ccc(Cl)cc1)N1CCN(c2ccccc2F)CC1
→ 13.3%	?	-23.8%	0.0%	.	?

Assay outcomes (PubChem)
